## Apparent affinities of Ab-91 variants for a coronavirus HR2 peptide

Target: peptide PDVDLGDISGINAS, taken from heptad repeat 2 (HR2) of SARS-CoV-2 spike.

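In library AAYL51, one, two or three CDR residues were substituted; doubles and triples were drawn at random. The assay is AlphaSeq: two haploid yeast populations carry antibody and antigen on their surface. Pairs that bind mate more often; barcode pairs of the diploids are counted by sequencing. Read counts were normalised to the haploid input and turned into Kd by a linear fit to BCL2-family pairs of known affinity, for each replicate. Each pool was mated in three replicate cultures.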

Parent scFv Ab-91: VL joined to VH by a 15-residue (Gly4Ser)3 linker. Changes lie in the heavy chain CDRs alone.
VL: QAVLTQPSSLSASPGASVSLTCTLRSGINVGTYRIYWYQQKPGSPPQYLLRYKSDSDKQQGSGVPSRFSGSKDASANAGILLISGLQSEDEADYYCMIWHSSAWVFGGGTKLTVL
VH: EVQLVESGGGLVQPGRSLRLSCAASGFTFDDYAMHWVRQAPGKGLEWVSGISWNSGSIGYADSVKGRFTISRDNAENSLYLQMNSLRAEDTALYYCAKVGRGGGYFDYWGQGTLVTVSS

Positions count from residue 1 of the parent VH; G56Q puts Q in place of G.
This list gathers variants with a substitution at G103 (VH, numbered from residue 1).
Values are apparent Kd, the geometric mean of the replicates that gave a signal; lower means stronger binding.
A pair that was not seen in any replicate is written "no signal"; this usually means weak binding, but a binder can also be missed.
In this assay the parent's reference entry averaged 72 nM; its copy inside this library read 7.5 nM.

For G56Q/G103T/D107H, the assay gave 7.7 nM (3 of 3 replicates). For F29N/I51R/G103L, the assay gave no signal (0 of 3 replicates). With A33L/G103H/F106C the result was 8.5 µM (2 of 3 replicates). With W53G/G102H/G103L the result was 17 nM (3 of 3 replicates). With G103C the result was 38 µM (2 of 3 replicates). For G26K/H35Y/G103I, the assay gave no signal (0 of 3 replicates). With T28P/S52H/G103R the result was 35 µM (1 of 3 replicates). Variant H35C/G103V/Y105F gave 170 µM (3 of 3 replicates).

Variant G56C/G103M/F106P gave 350 nM (3 of 3 replicates). With T28N/V99A/G103P the result was 1.3 µM (1 of 3 replicates). Variant Y32N/G103P/D107R gave 250 µM (1 of 3 replicates). Variant A33R/H35C/G103M gave 12 µM (2 of 3 replicates). For D31Y/G102R/G103M, the assay gave 1.1 µM (3 of 3 replicates). For K65A/G103H/F106G, the assay gave no signal (0 of 3 replicates). Variant G50V/D62T/G103F gave 170 µM (2 of 3 replicates). For G59D/G103T/F106M, the assay gave no signal (0 of 3 replicates).

For G56M/G102H/G103S, the assay gave 12 µM (1 of 3 replicates). With D31M/I58G/G103C the result was 630 µM (1 of 3 replicates). Variant D30M/G102N/G103Q gave 47 µM (3 of 3 replicates). Variant D30R/G56C/G103D showed 2.3 µM (1 of 3 replicates). With M34N/G103H the result was 16 µM (2 of 3 replicates). For G26R/S55K/G103K, the assay gave 370 µM (3 of 3 replicates). Variant D30R/N54V/G103C showed 58 µM (2 of 3 replicates). With F27S/I58C/G103D the result was no signal (0 of 3 replicates).

With Y60K/G103C/Y108R the result was 290 µM (3 of 3 replicates). For H35Q/G103A/D107S, the assay gave 110 µM (3 of 3 replicates). For S57M/G103M, the assay gave no signal (0 of 3 replicates). With A61K/G103C the result was 29 µM (2 of 3 replicates).

Excerpt, the final 2 entries:

Variant S57M/G103M gave no signal (0 of 3 replicates).
Variant A61K/G103C gave 29 µM (2 of 3 replicates).

Three control strains display no target. For library AAYL51, 21% of the pairings with them gave a signal, with a median of 34 µM and one signal in twenty below 1.8 µM, so weak values seen in few replicates may be background.

Reference: Engelhart et al. 2022, doi:10.1038/s41597-022-01779-4. File: FLAb, binding data.